Test system: mouse maximal electroshock (MES) assay
Assay: Mouse MES assay with plasma and brain concentration, Compound 29 oral
Type: in vivo, CF-1 mouse
Conditions: male CF-1 mice; oral 30 mg/kg; 0.25, 0.5 and 1 h

Compound: CCNC(=O)CC[C@H](N)C(=O)Nc1cc(NCc2ccc(F)cc2)ccc1NC(=O)OCC.Cl [Compound 29]
- Exposure of ezogabine in plasma and brain: very high in plasma and was present in brain
